The text below walks through data of PubChem BioAssay AID2550 (Johns Hopkins Ion Channel Center, 2010).

The chains behind the UniProt entries cited, without tags or fusion partners.
UniProt Q61143, whole entry: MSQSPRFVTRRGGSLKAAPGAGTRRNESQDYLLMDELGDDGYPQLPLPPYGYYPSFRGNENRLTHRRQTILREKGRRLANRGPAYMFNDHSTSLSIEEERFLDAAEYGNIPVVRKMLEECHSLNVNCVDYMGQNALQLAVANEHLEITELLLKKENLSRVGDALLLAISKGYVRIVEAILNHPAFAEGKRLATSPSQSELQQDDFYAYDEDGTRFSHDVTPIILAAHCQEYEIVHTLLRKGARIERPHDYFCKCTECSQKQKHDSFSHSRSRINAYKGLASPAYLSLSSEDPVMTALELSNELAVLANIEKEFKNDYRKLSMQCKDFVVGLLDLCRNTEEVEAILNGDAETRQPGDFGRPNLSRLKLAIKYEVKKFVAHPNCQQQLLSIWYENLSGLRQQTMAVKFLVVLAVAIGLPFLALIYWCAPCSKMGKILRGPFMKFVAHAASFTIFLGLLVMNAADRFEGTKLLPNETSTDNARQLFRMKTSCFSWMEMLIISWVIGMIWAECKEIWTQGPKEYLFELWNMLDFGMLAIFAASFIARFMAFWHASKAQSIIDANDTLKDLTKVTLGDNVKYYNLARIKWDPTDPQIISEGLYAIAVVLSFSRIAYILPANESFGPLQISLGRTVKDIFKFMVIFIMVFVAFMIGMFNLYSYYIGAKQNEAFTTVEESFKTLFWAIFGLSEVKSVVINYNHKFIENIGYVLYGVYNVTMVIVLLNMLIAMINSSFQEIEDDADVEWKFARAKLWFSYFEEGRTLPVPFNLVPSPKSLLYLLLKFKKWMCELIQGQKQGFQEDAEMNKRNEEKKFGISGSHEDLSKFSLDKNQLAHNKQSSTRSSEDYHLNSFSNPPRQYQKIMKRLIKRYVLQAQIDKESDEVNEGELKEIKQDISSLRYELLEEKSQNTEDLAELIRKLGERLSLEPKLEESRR

The list shows a part of the results, in another mix than the full data. Active and inactive are the calls of the source.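 Rule for the calls: active = B-score of the integrated fluorescence ratio above library mean plus 3 SD, and starting fluorescence ratio within library mean plus 5 SD; inactive = the rest.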

The target of the assay is Short transient receptor potential channel 6 (Mus musculus) (UniProt Q61143). In words: mouse TRPC6 channel activators, primary screen, cell-based, HEK293, membrane potential dye (AID 2550).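 Note: higher score means more depolarization so channel activation.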 To be noted: HEK293-TRPC6 membrane potential dye fluorescence; at 10 µM.
For the compound `Cc1ccc(OCC(C)C)c(CN(CCCl)CCCl)c1`, the compound was classed as inactive. In the case of `CCOC(=O)N1CCC(Nc2cccc(C)c2)CC1`, the outcome was inactive.

For `COc1cc(C(=O)NCC2(N(C)C)CCCCC2)ccc1OC(F)F`, the compound was called inactive. Under `COc1ccc(NC2CCN(CCc3ccccc3)CC2)c(OC)c1` stands “inactive”; under `CCOC(=O)N1CCC(Nc2ccc(F)cc2)CC1`, “inactive”; under `O=C(NCC1(N2CCCCC2)CCCCC1)c1ccc(F)cc1`, “inactive”.

On to `CCOc1ccc(C)cc1CN(CCCl)CCCl`, for which the result was inactive.

As to `N#CC1(Nc2ccccc2)CCN(Cc2ccccc2)CC1`, the call was inactive. Under `O=C(OC1CN2CCC1CC2)C1c2ccccc2Oc2ccccc21` (centres undefined) stands “inactive”; under `CCOC(=O)N1CCC(Nc2ccc(OC)cc2)CC1`, “inactive”; under `Cc1cc(C)cc(N(C(=O)c2ccccc2)C2CCN(C(=O)OC(C)(C)C)CC2)c1`, “inactive”. Consider `O=C(NCC1(N2CCCCC2)CCCCC1)c1ccc(Cl)nc1`, for which the call was inactive. The result for `O=C(NCC1(N2CCOCC2)CCCCC1)c1cc2ccccc2o1` reads “inactive”. Under `CSc1ccccc1C(=O)NCC1(N2CCCCC2)CCCCC1` stands “inactive”; under `CC(C)(C)OC(=O)N1CCC(N(C(=O)c2ccccc2)c2ccc(F)cc2)CC1`, “inactive”; under `COc1ccc(C(=O)NCC2(N3CCCCC3)CCCCC2)c(OC)c1OC`, “inactive”. With `COc1ccc(C(=O)NCC2(N3CCCCC3)CCCCC2)cc1`, the compound was classed as inactive. Under `O=C(NCC1(N2CCCCC2)CCCCC1)c1cccs1` stands “inactive”. The result for `O=C(NCC1(N2CCCCC2)CCCCC1)c1ccc(=O)[nH]c1` reads “inactive”. As to `CCCOc1ccc(C(=O)NCC2(N(C)C)CCCCC2)cc1OC`, the result was inactive. The result for `CN1CCC(Nc2cccc(F)c2)CC1` reads “inactive”. For `COc1cc(OC)c(C(=O)NCC2(N(C)C)CCCCC2)cc1OC`, the result was inactive. With `CC(C)c1ccc(NC2CCN(C(=O)OC(C)(C)C)CC2)cc1`, the result was inactive.

Consider `CN(C)c1cccc(C(=O)NCC2(N3CCCCC3)CCCCC2)c1`, for which the compound was called inactive. For `COc1ccc(CN(CCCl)CCCl)cc1Cl`, the outcome was inactive. Under `COc1cc(C(=O)NCC2(N3CCCCC3)CCCCC2)ccc1OC(F)F` stands “inactive”; under `O=C(NCC1(N2CCOCC2)CCCCC1)c1cc(=O)[nH]c2ccccc12`, “inactive”. On to `CN1CCN(CCOC(=O)C(O)(c2ccccc2)c2ccccc2)CC1`, for which the call was inactive.

With `COc1ccc(NC2CCN(C(=O)OC(C)(C)C)CC2)cc1`, the call was inactive. `O=C(NCC1(N2CCCCC2)CCCCC1)c1cccc(C(F)(F)F)c1`: the call was inactive. Under `N#CC1(Nc2ccccc2)CCN(CCc2ccccc2)CC1` stands “inactive”; under `CCN1CCC(Nc2ccc(Cl)cc2)CC1`, “inactive”; under `O=C(NCC1(N2CCCCC2)CCCCC1)c1cccc([N+](=O)[O-])c1`, “inactive”. Under `O=C(NCC1(N2CCCCC2)CCCCC1)c1ccc(OC(F)F)cc1` stands “inactive”; under `CN(C)C1(CNC(=O)c2cccc(C#N)c2)CCCCC1`, “inactive”; under `CCCN1CCC(Nc2cc(OC)cc(OC)c2)CC1`, “inactive”.

For the compound `c1ccc(CN2CCC(Nc3ccccc3)CC2)cc1`, the result was inactive. The result for `N#Cc1ccc(C(=O)NCC2(N3CCCCC3)CCCCC2)cc1` reads “inactive”. Regarding `CC(C)(C)OC(=O)N1CCC(N(C(=O)c2ccccc2)c2ccc(Cl)cc2)CC1`, the call was inactive. Take `CCc1cc(C(=O)NCC2(N3CCCCC3)CCCCC2)sc1C`: the result was inactive.

Regarding `O=C(OC1CN2CCC1CC2)C1c2ccccc2C=Cc2ccccc21` (centres undefined), the compound was called inactive. Under `CCOC(=O)N1CCC(Nc2ccc(C)cc2)CC1` stands “inactive”; under `N/C(=N\O)c1c(N)no[n+]1[O-]`, “inactive”; under `COc1ccc(C(=O)NCC2(N3CCOCC3)CCCCC2)cc1OC`, “inactive”. Under `CN1CCC(Nc2ccc(Cl)cc2)CC1` stands “inactive”; under `CCCOc1ccc(C)cc1CN(CCCl)CCCl`, “inactive”; under `COc1cc(OC)cc(C(=O)NCC2(N3CCOCC3)CCCCC2)c1`, “inactive”. As to `COc1cccc(C(=O)N(c2cc(C)cc(C)c2)C2CCN(C(=O)OC(C)(C)C)CC2)c1`, the compound was classed as inactive. Regarding `CCC(CO)(C(=O)OC1CN2CCC1CC2)c1ccccc1` (centres undefined), the result was inactive. Under `O=C(O)C1(Nc2ccccc2)CCN(Cc2ccccc2)CC1` stands “inactive”; under `CC(C)(C)OC(=O)N1CCC(Nc2ccccc2)CC1`, “inactive”. Under `CCCOc1ccc(C(=O)NCC2(N(C)C)CCCCC2)cc1` stands “inactive”; under `CN1CCC(Nc2ccc(F)c(Cl)c2)CC1`, “inactive”; under `CCOc1ncccc1C(=O)NCC1(N2CCOCC2)CCCCC1`, “inactive”.

Turning to `CN(C)c1ccc(C(=O)NCC2(N3CCCCC3)CCCCC2)cc1`, the outcome was inactive. Under `CCN1CCC(Nc2cccc(F)c2)CC1` stands “inactive”; under `Fc1ccccc1NC1CCN(Cc2ccccc2)CC1`, “inactive”. Under `Cc1ccc(C(=O)NCC2(N3CCCCC3)CCCCC2)o1` stands “inactive”; under `COc1cc(OC)cc(C(=O)NCC2(N3CCCCC3)CCCCC2)c1`, “inactive”.
